From PubChem BioAssay AID624330 (Southern Research Specialized Biocontainment Screening …, 2012)
The list shows a part of the results. Measured potencies and affinities stand elsewhere. Activity calls are given as the source filed them.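 Rule for the calls: active = first-screen hits whose inhibition reached a set limit at any dose in the follow-up dose series; inconclusive = inhibition above the set first-screen limit but never retested; inactive = the rest.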

Chains of the proteins cited; added tags and fusions are not shown. Lines headed by an entry give the natural chain unless they say otherwise; changes in a name come on top.
UniProt Q9H0H5: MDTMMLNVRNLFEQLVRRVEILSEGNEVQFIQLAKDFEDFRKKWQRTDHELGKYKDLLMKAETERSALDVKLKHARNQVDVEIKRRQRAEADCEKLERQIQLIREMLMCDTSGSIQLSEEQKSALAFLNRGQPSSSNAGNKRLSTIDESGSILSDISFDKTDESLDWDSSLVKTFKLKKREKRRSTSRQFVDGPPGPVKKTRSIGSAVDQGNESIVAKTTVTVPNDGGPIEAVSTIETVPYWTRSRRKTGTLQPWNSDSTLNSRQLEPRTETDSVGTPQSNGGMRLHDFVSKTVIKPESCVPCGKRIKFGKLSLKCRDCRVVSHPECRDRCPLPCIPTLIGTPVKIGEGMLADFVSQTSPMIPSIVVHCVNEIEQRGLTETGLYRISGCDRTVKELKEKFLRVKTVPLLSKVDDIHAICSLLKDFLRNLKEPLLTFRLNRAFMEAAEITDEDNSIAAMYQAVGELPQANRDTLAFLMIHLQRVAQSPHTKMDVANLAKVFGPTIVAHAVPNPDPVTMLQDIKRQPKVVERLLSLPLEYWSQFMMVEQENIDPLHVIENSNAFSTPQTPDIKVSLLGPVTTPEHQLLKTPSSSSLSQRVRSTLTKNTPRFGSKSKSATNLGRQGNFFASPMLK

Target: Rac GTPase-activating protein 1 (Homo sapiens) (UniProt Q9H0H5)
Assay: blockers of MgcRacGAP-driven Rac1 GTP hydrolysis – biochemical, ADP Hunter fluorescence, primary and confirmatory, confirmation (AID 624330);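 note: fluorescence reports GDP produced by GAP-driven GTP hydrolysis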
Details: MgcRacGAP-stimulated Rac1 GTP hydrolysis, at 30 µM, stronger effect = higher value, GST-tagged Rac1 F28L mutant substrate

Structure (SMILES) | inhibition
CCc1cc(O)c([N+](=O)[O-])c(C)c1[N+](=O)[O-] | inactive: -0.66%
CC(C)(C)C(=O)NC(Sc1ccccc1)C(Cl)(Cl)Cl (configuration not stated) | inactive: -0.84%
CCOc1ccc(C2=NCC(CBr)S2)cc1 (configuration not stated) | inactive: 4.84%
O=P1(Nc2nc3ccc(Cl)cc3s2)COc2ccccc2O1 (configuration not stated) | inactive: 5.12%
CC(=O)Nc1ccc([As](=O)(O)O)c(O)c1 | inactive: 13.6%
COC(=O)C1(C)COP(=O)(NCc2ccccc2)OC1 (configuration not stated) | inactive: -5.06%
N#C/C(=C\c1ccc(N(CCBr)CCBr)cc1)C(N)=O | inactive: 13.8%
CC(=O)c1ccc(N2CC2c2ccncc2)cc1 (configuration not stated) | inactive: 3.8%
C[C@@H]1C=CCP(=O)(Oc2ccccc2)O1 (some centres not stated) | inactive: 11.9%
C[C@H]1OP(=O)(Oc2ccccc2)C[C@@H]2O[C@@H]21 (some centres not stated) | inactive: 4.9%
Cc1ccccc1CN(C)C(=O)COC(=O)C(O)(c1ccccc1)c1ccccc1 | inactive: -3.64%
O=P1(N(CCCl)CCCl)OCCC2CCCCN21 (configuration not stated) | inactive: 7.27%
CCNC(=S)/N=C(\N)N[N+](=O)[O-] | inactive: -2.53%
O=C(NC1CCS(=O)(=O)C1)NP(=S)(Oc1ccccc1)Oc1ccccc1 (configuration not stated) | inactive: 3.92%
CN(C)C(=O)Oc1noc2ccccc12 | inactive: 9.88%
O=c1c2cc([N+](=O)[O-])ccc2[nH]c2c([N+](=O)[O-])cc([N+](=O)[O-])cc12 | inactive: 8.96%
Cc1ccccc1OP(=O)(Nc1ccccn1)Oc1ccccc1C | inactive: 6.27%
CC(NC(=O)COC(=O)C(O)(c1ccccc1)c1ccccc1)c1ccccc1 (configuration not stated) | inactive: 4.19%
CC(=O)NC(SC(=S)N(CC(C)C)CC(C)C)C(Cl)(Cl)Cl (configuration not stated) | inactive: 10.1%
Cc1ccc(OP(=O)(Nc2ccccn2)Oc2ccc(C)cc2)cc1 | inactive: 6.68%
COC(=O)c1cc2c(s1)N=C(c1ccccc1)N(C)P2(=O)N1CCOCC1 (configuration not stated) | inactive: 11.1%
CCC(=O)N1C2C3N(C(=O)CC)C1C1N(C(=O)CC)C(C(N1C(=O)CC)N3C(=O)CC)N2C(=O)CC | inactive: 11%
O=C(OC1CN2CCC1CC2)c1ccccc1 (configuration not stated) | inactive: 6.37%
C[C@H]1OP(=O)(Oc2ccccc2)[C@H](O)[C@H](O)[C@H]1N=[N+]=[N-] (some centres not stated) | inactive: 15.3%
O=P(Nc1nc2ccccc2s1)(c1ccccc1)c1ccccc1 | inactive: 10.7%
COc1ccc(N)c([N+](=O)[O-])c1[N+](=O)[O-] | inactive: 1.55%

Structure (SMILES) | inhibition
O=P(Nc1ccccn1)(c1ccc(Br)cc1)c1ccc(Br)cc1 | inactive: -1.57%
Nc1ccc([As](=O)(O)c2ccc([N+](=O)[O-])cc2)cc1 | inactive: 1.99%
C(Cc1nn[nH]n1)Cc1nn[nH]n1 | inactive: -0.35%
O=C(OC1CN2CCC1CC2)c1cccc(Cl)c1 (configuration not stated) | inactive: 12.8%
O=[N+]([O-])c1ccc(O)c(/C=N/Nc2ccc([N+](=O)[O-])cc2[N+](=O)[O-])c1 | inactive: -8.09%
CC(=O)NC(SC(=S)N(C)C)C(Cl)(Cl)Cl (configuration not stated) | inactive: 5.27%
O=[N+]([O-])c1ncn(CCn2cnc([N+](=O)[O-])n2)n1 | inactive: 6.79%
O=[As](O)(c1ccccc1)c1ccc(O)cc1 | inactive: 11.2%
c1nnnn1CCn1cnnn1 | inactive: 3.35%
CC(C)C(=O)NC(Sc1ccccc1)C(Cl)(Cl)Cl (configuration not stated) | inactive: -3.62%
O=P(Nc1nccs1)(c1ccccc1)c1ccccc1 | inactive: 13.3%
O=[N+]([O-])c1cccc2n[nH]nc12 | inactive: 3.28%
CC(=O)N1C2C3N(C(C)=O)C1C1N(C(C)=O)C(C(N1C(C)=O)N3C(C)=O)N2C(C)=O | inactive: 12.8%
CCc1nc2c(n1)c1c(non1O)c1c2no[n+]1[O-] | inactive: 27.6%
O=[N+]([O-])c1cc([N+](=O)[O-])c(CCNc2ccccc2)c([N+](=O)[O-])c1 | inactive: 4.19%
Cc1ccc(NP(=O)(Oc2ccccc2)Oc2ccccc2)nc1 | inactive: -5.08%
COc1ccc(C2=NCC(CBr)S2)cc1 (configuration not stated) | inactive: 15%
CN(C)C(=O)OCCc1n(C)cc[n+]1C | inactive: 9.07%
CC(C)=N/N=C(\N)N[N+](=O)[O-] | inactive: 2.89%
CC(C)c1nc(Nc2ccccc2)n(P(=O)(N(C)C)N(C)C)n1 | inactive: 7.8%
c1cc(-c2nn[nH]n2)ccc1-c1nn[nH]n1 | inactive: 8.69%
CC1CCN(C(=O)Oc2c(Cl)cc(Cl)c3cccnc23)CC1 | inactive: 10.7%
C[N+]1=C2C=CC=CC=C2SC12C([N+](=O)[O-])=CC([N+](=O)[O-])=C[C-]2[N+](=O)[O-] (configuration not stated) | inactive: 41.5%
Nc1ccc([As](=O)(O)c2ccc(N)cc2)cc1 | inactive: -1.97%
CCN(/C(=N/P(=O)(N1CCOCC1)N1CCOCC1)N1CCOCC1)c1ccc(OC)cc1 | inactive: 5.91%
O=C(Nc1cc([As](=O)(O)O)ccc1O)c1ccccc1 | inactive: 9.55%

Structure (SMILES) | inhibition
O=P1(N(CCCl)CCCl)OCCCS1 (configuration not stated) | inactive: -1.86%
O=[N+]([O-])c1cccc(NC2=NCC(CBr)S2)c1 (configuration not stated) | inactive: 13.1%
COC(=O)C1(C)COP(=O)(Nc2ccccc2)OC1 (configuration not stated) | inactive: -4.02%
O=C(O)CNc1ccc([As](=O)(O)O)cc1 | inactive: 7.59%
CC(C)(C)C(=O)NC(Sc1ccncn1)C(Cl)(Cl)Cl (configuration not stated) | inactive: -3.08%
O=[N+]([O-])c1ncn(CCn2ncnc2[N+](=O)[O-])n1 | inactive: -0.87%
Cc1ccc(NP(=O)(Oc2ccccc2F)Oc2ccccc2F)nc1 | inactive: -0.21%
CN(C(=O)Cc1ccc(Cl)c(Cl)c1)[C@H]1CCCC[C@@H]1N1CCCC1 | inactive: 8.34%
CCOP(=O)(Nc1ccccc1)OCC | inactive: 7.6%
Cc1cc(SC(NC(=O)c2ccc(F)cc2)C(Cl)(Cl)Cl)ncn1 (configuration not stated) | inactive: 19.5%
CCCC1OP(N)(=O)OCC1CC (configuration not stated) | inactive: -5.98%
O=C(O)c1ccccc1[As](=O)(O)O | inactive: 11.7%
CC(=O)Nc1ccc([As](=O)(O)O)cc1 | inactive: -11.5%
CN(C)P(=O)(N(C)C)n1c(Nc2ccccc2)nnc1-c1ccccc1 | inactive: 7.47%
O=P(Nc1nc2ccc(Cl)cc2s1)(c1ccccc1)c1ccccc1 | inactive: -3.27%
CCN(N=Nc1nonc1N)c1nonc1N | inactive: 10.1%
COc1ccccc1OP(=O)(Nc1ccc(C)cn1)Oc1ccccc1OC | inactive: 5.03%
Clc1ccc(Cl)c(NC2=NCC(CBr)S2)c1 (configuration not stated) | inactive: 3.57%
CN1CCCC(OC(=O)C(c2ccccc2)c2ccccc2)C1 (configuration not stated) | inactive: -2.62%
NC(=O)c1cc([N+](=O)[O-])cc([N+](=O)[O-])c1N | inactive: 7.07%
Cc1ccc(N/C(=N/P(=O)(N2CCOCC2)N2CCOCC2)N2CCOCC2)cc1 | inactive: -9.42%
CN(C(=O)Cc1ccc(Cl)c(Cl)c1)[C@H]1CCCC[C@H]1N1CCCC1 | inactive: 0.58%
CC(C)CC(=O)NC(Sc1ccc(Cl)cc1)C(Cl)(Cl)Cl (configuration not stated) | inactive: 0.13%
Nc1cc(N)c2nonc2c1[N+](=O)[O-] | inactive: 10.9%
O=C(NC(Sc1ccncn1)C(Cl)(Cl)Cl)c1ccccc1 (configuration not stated) | inactive: 11.8%
Oc1ccccc1CNc1ccccn1 | inactive: 7.15%

Structure (SMILES) | inhibition
COc1cc(I)ccc1[As](=O)(O)O | inactive: -0.32%
COc1ccc2nc(NP(=O)(c3ccccc3)c3ccccc3)sc2c1 | inactive: 4.88%
O=P1(N(CCCl)CCCl)OCCCN1CCCl (configuration not stated) | inactive: 1.38%
O=P1(N(CCCl)CCCl)Nc2ccccc2N1 | inactive: 26.5%
Cc1cc(=O)[nH]c(N[N+](=O)[O-])n1 | inactive: 9.53%
O=C(OC1CN2CCC1CC2)C12CC3CC(CC(C3)C1)C2 (configuration not stated) | inactive: 8.14%
Cc1c2c(nc3ccccc13)SC(C(Cl)Cl)C2 (configuration not stated) | inactive: 7.38%
COc1ccc(N/C(=N/P(=O)(N2CCOCC2)N2CCOCC2)N2CCOCC2)cc1 | inactive: 5.64%
O=[N+]([O-])c1cc(Oc2ccc([N+](=O)[O-])cc2C(F)(F)F)cc([N+](=O)[O-])c1 | inactive: 0.72%
Cc1ccc2nc3c(c(C)c2c1)CC(C(Cl)Cl)S3 (configuration not stated) | inactive: 2.43%
Cc1ccc(OP(=O)(Nc2ccc([N+](=O)[O-])cn2)Oc2ccc(C)cc2)cc1 | inactive: 6.48%
COc1cc(C(=O)NCC2(N3CCOCC3)CCCCC2)ccc1OCC(C)C | inactive: 1.47%
O=[N+]([O-])c1ccc(-c2cc([N+](=O)[O-])c(O)c([N+](=O)[O-])c2)cc1 | inactive: 3.39%
C[As](=O)(O)c1cccc(C(=O)O)c1 | inactive: 6.75%
O=[As](O)(c1ccc(O)cc1)c1ccccc1O | inactive: 2.18%
O=[N+]([O-])c1cc([N+](=O)[O-])c(-c2ccn[nH]2)s1 | inactive: 7.19%
CCN(CC)C(=S)SC(NC=O)C(Cl)(Cl)Cl (configuration not stated) | inactive: 10.1%
O=C(OC1CN2CCC1CC2)c1cccc2[nH]cnc12 (configuration not stated) | inactive: 11.1%
CC(C)c1ccc(OP(=O)(Nc2ccccn2)Oc2ccccc2F)cc1 (configuration not stated) | inactive: -3.53%
COC(=O)C1(C)COP(=O)(N2CCCCCC2)OC1 (configuration not stated) | inactive: 0.93%
ClCCSc1nnc(-c2cccnc2)o1 | inactive: 4.41%
Cc1cc(SC(NC(=O)c2ccccc2)C(Cl)(Cl)Cl)nc(C(C)C)n1 (configuration not stated) | inactive: 10.7%
CCCCOc1ccc(C(=O)NCC2(N3CCCCC3)CCCCC2)cc1OC | inactive: 4.17%
COP(=O)(OC)N1CC1c1ccccc1 (configuration not stated) | inactive: 9.67%
